{"sequences": {"note": "Amino acid sequences for entries named in this document (tags omitted).", "UniProt O75874, whole entry R132H": "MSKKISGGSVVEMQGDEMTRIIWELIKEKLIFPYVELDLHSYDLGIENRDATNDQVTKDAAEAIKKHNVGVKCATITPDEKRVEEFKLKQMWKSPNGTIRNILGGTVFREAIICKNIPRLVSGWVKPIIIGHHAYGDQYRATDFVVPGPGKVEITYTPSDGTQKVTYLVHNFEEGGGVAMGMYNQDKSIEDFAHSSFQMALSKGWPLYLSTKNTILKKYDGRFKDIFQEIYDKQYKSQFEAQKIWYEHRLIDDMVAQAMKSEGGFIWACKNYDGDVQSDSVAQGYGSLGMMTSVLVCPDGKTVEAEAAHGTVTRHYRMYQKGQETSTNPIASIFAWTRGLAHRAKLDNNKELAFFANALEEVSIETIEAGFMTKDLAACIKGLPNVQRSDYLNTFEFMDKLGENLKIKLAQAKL"}, "source": "patent US10179123B2", "about": "“2-aryl- and 2-arylalkyl-benzimidazoles as mIDH1 inhibitors” (BAYER PHARMA AKTIENGESELLSCHAFT, priority 2015, dated 2019)", "key": {"IDH1 R132H enzyme": {"target": "IDH1 R132H enzyme (Homo sapiens (Human), UniProt O75874, R132H)", "assay": "Mutant IDH1 R132H biochemical assay", "conditions": "NADPH consumption, luminescent readout; 1.5 nM enzyme, 1 μM NADPH, 250 μM α-KG, 30 minutes, 32° C.", "experimental": "Mutant IDH1 R132H Biochemical Assay […] NADPH consumption was measured by luminescent readout. […] The IDH1 R132H enzyme was used in a final concentration of 1.5 nM. […] The final DMSO concentration was 2.4%. […] Luminescence was measured on a luminescent reader (10 seconds measuring time, 1 second integration period, 30% sensitivity). The decrease in luminescence is proportional to mIDH1 activity. IC50 values are determined by interpolation from plots of relative luminescence versus inhibitor concentration."}, "[1]": {"target": "mutated isocitrate dehydrogenase (mIDH) protein, LN229 R132H cells (Homo sapiens (Human), UniProt O75874, R132H)", "assay": "Mutant IDH1 cellular assay (2-HG in medium of LN229 R132H cells)", "assay_type": "cell-based", "conditions": "2-HG levels in medium, 24 hours", "experimental": "Mutant IDH1 Cellular Assay\nLevels of (2R)-2-hydroxyglutarate (2HG) were measured in medium of a cell line with overexpression of mutated isocitrate dehydrogenase (mIDH) protein. mIDH catalyzes the NADPH-dependent reduction of alpha-ketoglutarate to 2-HG. Cells (LN229 R132H, Mohrenz et al., Apoptosis (2013) 18:1416-1425) were grown in DMEM containing 10% FCS. They were harvested by trypsin and seeded into 96-well plates. Cells were incubated overnight at 37° C. in 5% CO2. The next day test compounds were added to each cell well. The final concentration of DMSO was 0.1% and DMSO controls were included. The plates were then placed in an incubator for 24 hours.\n2-HG was measured according to Balss et al. (Acta Neuropathol (2012) 124: 883-891). Briefly, HClO4 was added to each well and the plates were centrifuged. Aliquots are removed and incubated with hydroxyglutarate dehydrogenase (HGDH), diaphorase, NAD+, and resazurin. The conversion of resazurin to resorufin was detected by fluorescence spectroscopy at Ex 540 nm Em 600 nm. The increase in fluorescence is proportional to 2-HG production. IC50 values are determined by interpolation from plots of relative fluorescence vs inhibitor concentration."}}}
{"smiles": "C[C@@H]1C[C@H](n2c(-c3ccc(OC(F)(F)F)cc3)nc3cc(C(=O)O)ccc32)CC(C)(C)C1", "note": "(racemic) [Example 2-2, (±) 2-[4-(trifluoromethoxy)phenyl]-1-[(cis)-3,3,5-trimethylcyclohexyl]-1H-benzimidazole-5-carboxylic Acid]", "values": [{"measurement": "IC50", "setting": "IDH1 R132H enzyme", "result": 190, "unit": "nM"}]}
{"smiles": "COC(=O)c1ccc2c(c1)nc(Cc1ccccc1)n2[C@H]1C[C@@H](C)CC(C)(C)C1", "note": "(racemic) [Example 2-12, (±) methyl 2-benzyl-1-[(cis)-3,3,5-trimethylcyclohexyl]-1H-benzimidazole-5-carboxylate]", "values": [{"measurement": "IC50", "setting": "IDH1 R132H enzyme", "result": 3500, "unit": "nM"}]}
{"smiles": "COC(=O)c1ccc2c(c1)nc(Cc1sc(-c3ccccc3)nc1C)n2[C@H]1C[C@@H](C)CC(C)(C)C1", "note": "(racemic) [Example 2-15, (±) methyl 2-[(4-methyl-2-phenyl-1,3-thiazol-5-yl)methyl]-1-[(cis)-3,3,5-trimethylcyclohexyl]-1H-benzimidazole-5-carboxylate]", "values": [{"measurement": "IC50", "setting": "IDH1 R132H enzyme", "result": 8000, "unit": "nM"}]}
{"smiles": "COC(=O)c1ccc2c(c1)nc(Cc1c(C)[nH]c3ccc(F)cc13)n2[C@H]1C[C@@H](C)CC(C)(C)C1", "note": "(racemic) [Example 2-16, (±) methyl 2-[(5-fluoro-2-methyl-1H-indol-3-yl)methyl]-1-[(cis)-3,3,5-trimethylcyclohexyl]-1H-benzimidazole-5-carboxylate]", "values": [{"measurement": "IC50", "setting": "IDH1 R132H enzyme", "result": 5800, "unit": "nM"}]}
{"smiles": "COC(=O)c1ccc2c(c1)nc(Cc1cn(C)c3ccccc13)n2[C@H]1C[C@@H](C)CC(C)(C)C1", "note": "(racemic) [Example 2-17, (±) methyl 2-[(1-methyl-1H-indol-3-yl)methyl]-1-[(cis)-3,3,5-trimethylcyclohexyl]-1H-benzimidazole-5-carboxylate]", "values": [{"measurement": "IC50", "setting": "IDH1 R132H enzyme", "result": 9000, "unit": "nM"}]}
{"smiles": "COC(=O)c1cc2nc(Cc3ccc(OC(F)(F)F)cc3)n([C@H]3C[C@@H](C)CC(C)(C)C3)c2cc1OC", "note": "(racemic) [Example 2-19, (±) methyl 6-methoxy-2-[4-(trifluoromethoxy)benzyl]-1-[(cis)-3,3,5-trimethylcyclohexyl]-1H-benzimidazole-5-carboxylate]", "values": [{"measurement": "IC50", "setting": "IDH1 R132H enzyme", "result": 160, "unit": "nM"}, {"measurement": "IC50", "setting": "[1]", "result": 2300, "unit": "nM"}]}
{"smiles": "COC(=O)c1cc2nc(Cc3ccc(OC(F)(F)F)cc3)n([C@H]3C[C@@H](C)CC(C)(C)C3)c2cc1OCC(F)(F)F", "note": "(racemic) [Example 2-21, (±) methyl 6-(2,2,2-trifluoroethoxy)-2-[4-(trifluoromethoxy)benzyl]-1-[(cis)-3,3,5-trimethylcyclohexyl]-1H-benzimidazole-5-carboxylate]", "values": [{"measurement": "IC50", "setting": "IDH1 R132H enzyme", "result": "> 10000", "unit": "nM"}]}
{"smiles": "C[C@@H]1C[C@H](n2c(Cc3ccc(OC(F)(F)F)cc3)nc3cc(C#N)ccc32)CC(C)(C)C1", "note": "(racemic) [Example 2-23, (±) 2-[4-(trifluoromethoxy)benzyl]-1-[(cis)-3,3,5-trimethylcyclohexyl]-1H-benzimidazole-5-carbonitrile]", "values": [{"measurement": "IC50", "setting": "IDH1 R132H enzyme", "result": 750, "unit": "nM"}]}
{"smiles": "COC(=O)CCc1cc2nc(Cc3ccc(OC(F)(F)F)cc3)n([C@H]3C[C@@H](C)CC(C)(C)C3)c2cc1C", "note": "(racemic) [Example 2-27, (±) methyl 3-{6-methyl-2-[4-(trifluoromethoxy)benzyl]-1-[(cis)-3,3,5-trimethylcyclohexyl]-1H-benzimidazol-5-yl}propanoate]", "values": [{"measurement": "IC50", "setting": "IDH1 R132H enzyme", "result": 180, "unit": "nM"}, {"measurement": "IC50", "setting": "[1]", "result": 500, "unit": "nM"}]}
{"smiles": "COC(=O)CCc1cc2nc(Cc3ccc(OC(F)(F)F)cc3)n([C@H]3C[C@@H](C)CC(C)(C)C3)c2cc1OC", "note": "(racemic) [Example 2-28, (±) methyl 3-{6-methoxy-2-[4-(trifluoromethoxy)benzyl]-1-[(cis)-3,3,5-trimethylcyclohexyl]-1H-benzimidazol-5-yl}propanoate]", "values": [{"measurement": "IC50", "setting": "IDH1 R132H enzyme", "result": 180, "unit": "nM"}, {"measurement": "IC50", "setting": "[1]", "result": 1100, "unit": "nM"}]}
{"smiles": "C[C@@H]1C[C@H](n2c(Cc3ccc(OC(F)(F)F)cc3)nc3cc(C(=O)O)ccc32)CC(C)(C)C1", "note": "(racemic) [Example 2-29, (±) 2-[4-(trifluoromethoxy)benzyl]-1-[(cis)-3,3,5-trimethylcyclohexyl]-1H-benzimidazole-5-carboxylic Acid]", "values": [{"measurement": "IC50", "setting": "[1]", "result": 950, "unit": "nM"}]}
{"smiles": "C[C@@H]1C[C@H](n2c(-c3ccc(OC(F)(F)F)cc3)nc3cc(C(=O)O)ccc32)CC(C)(C)C1", "note": "(single isomer, unassigned) [Example 2-2-1, 2-[4-(trifluoromethoxy)phenyl]-1-[(cis)-3,3,5-trimethylcyclohexyl]-1H-benzimidazole-5-carboxylic Acid]", "values": [{"measurement": "IC50", "setting": "IDH1 R132H enzyme", "result": 130, "unit": "nM"}]}
{"smiles": "COC(=O)c1cc2nc(Cc3ccc(OC(F)(F)F)cc3)n([C@H]3C[C@@H](C)CC(C)(C)C3)c2cc1OC", "note": "(single isomer, unassigned) [Example 2-19-1, methyl 6-methoxy-2-[4-(trifluoromethoxy)benzyl]-1-[(cis)-3,3,5-trimethylcyclohexyl]-1H-benzimidazole-5-carboxylate]", "values": [{"measurement": "IC50", "setting": "IDH1 R132H enzyme", "result": 1000, "unit": "nM"}]}
{"smiles": "COC(=O)c1cc2nc(Cc3ccc(OC(F)(F)F)cc3)n([C@H]3C[C@@H](C)CC(C)(C)C3)c2cc1OC", "note": "(single isomer, unassigned) [Example 2-19-2, methyl 6-methoxy-2-[4-(trifluoromethoxy)benzyl]-1-[(cis)-3,3,5-trimethylcyclohexyl]-1H-benzimidazole-5-carboxylate]", "values": [{"measurement": "IC50", "setting": "IDH1 R132H enzyme", "result": 70, "unit": "nM"}, {"measurement": "IC50", "setting": "[1]", "result": 1200, "unit": "nM"}]}
{"smiles": "COC(=O)c1cc2nc(Cc3ccc(OC(F)(F)F)cc3)n([C@H]3C[C@@H](C)CC(C)(C)C3)c2cc1OCC(F)(F)F", "note": "(single isomer, unassigned) [Example 2-21-1, methyl 6-(2,2,2-trifluoroethoxy)-2-[4-(trifluoromethoxy)benzyl]-1-[(cis)-3,3,5-trimethylcyclohexyl]-1H-benzimidazole-5-carboxylate]", "values": [{"measurement": "IC50", "setting": "IDH1 R132H enzyme", "result": 5000, "unit": "nM"}]}
{"smiles": "COC(=O)c1cc2nc(Cc3ccc(OC(F)(F)F)cc3)n([C@H]3C[C@@H](C)CC(C)(C)C3)c2cc1OCC(F)(F)F", "note": "(single isomer, unassigned) [Example 2-21-2, methyl 6-(2,2,2-trifluoroethoxy)-2-[4-(trifluoromethoxy)benzyl]-1-[(cis)-3,3,5-trimethylcyclohexyl]-1H-benzimidazole-5-carboxylate]", "values": [{"measurement": "IC50", "setting": "IDH1 R132H enzyme", "result": 12000, "unit": "nM"}]}
{"smiles": "COC(=O)CCc1cc2nc(Cc3ccc(OC(F)(F)F)cc3)n([C@H]3C[C@@H](C)CC(C)(C)C3)c2cc1OC", "note": "(single isomer, unassigned) [Example 2-28-1, methyl 3-{6-methoxy-2-[4-(trifluoromethoxy)benzyl]-1-[(cis)-3,3,5-trimethylcyclohexyl]-1H-benzimidazol-5-yl}propanoate]", "values": [{"measurement": "IC50", "setting": "IDH1 R132H enzyme", "result": 1200, "unit": "nM"}]}
{"smiles": "COC(=O)CCc1cc2nc(Cc3ccc(OC(F)(F)F)cc3)n([C@H]3C[C@@H](C)CC(C)(C)C3)c2cc1OC", "note": "(single isomer, unassigned) [Example 2-28-2, methyl 3-{6-methoxy-2-[4-(trifluoromethoxy)benzyl]-1-[(cis)-3,3,5-trimethylcyclohexyl]-1H-benzimidazol-5-yl}propanoate]", "values": [{"measurement": "IC50", "setting": "IDH1 R132H enzyme", "result": 100, "unit": "nM"}, {"measurement": "IC50", "setting": "[1]", "result": 120, "unit": "nM"}]}
{"smiles": "C[C@@H]1C[C@H](n2c(Cc3ccc(OC(F)(F)F)cc3)nc3cc(C(=O)O)ccc32)CC(C)(C)C1", "note": "(single isomer, unassigned) [Example 2-29-2, 2-[4-(trifluoromethoxy)benzyl]-1-[(cis)-3,3,5-trimethylcyclohexyl]-1H-benzimidazole-5-carboxylic Acid]", "values": [{"measurement": "IC50", "setting": "IDH1 R132H enzyme", "result": 50, "unit": "nM"}, {"measurement": "IC50", "setting": "[1]", "result": 600, "unit": "nM"}]}
{"smiles": "CC(c1ccc(OC(F)(F)F)cc1)c1nc2cc(C(=O)O)ccc2n1[C@H]1C[C@@H](C)CC(C)(C)C1", "note": "(single isomer, unassigned) [Example 2-30-1, 2-{1-[4-(trifluoromethoxy)phenyl]ethyl}-1-[(cis)-3,3,5-trimethylcyclohexyl]-1H-benzimidazole-5-carboxylic acid]", "values": [{"measurement": "IC50", "setting": "IDH1 R132H enzyme", "result": 5000, "unit": "nM"}]}
{"smiles": "CC(c1ccc(OC(F)(F)F)cc1)c1nc2cc(C(=O)O)ccc2n1[C@H]1C[C@@H](C)CC(C)(C)C1", "note": "(single isomer, unassigned) [Example 2-30-2, 2-{1-[4-(trifluoromethoxy)phenyl]ethyl}-1-[(cis)-3,3,5-trimethylcyclohexyl]-1H-benzimidazole-5-carboxylic acid]", "values": [{"measurement": "IC50", "setting": "IDH1 R132H enzyme", "result": 950, "unit": "nM"}]}
{"smiles": "CC(c1ccc(OC(F)(F)F)cc1)c1nc2cc(C(=O)O)ccc2n1[C@H]1C[C@@H](C)CC(C)(C)C1", "note": "(single isomer, unassigned) [Example 2-30-3, 2-{1-[4-(trifluoromethoxy)phenyl]ethyl}-1-[(cis)-3,3,5-trimethylcyclohexyl]-1H-benzimidazole-5-carboxylic acid]", "values": [{"measurement": "IC50", "setting": "IDH1 R132H enzyme", "result": 2000, "unit": "nM"}]}
{"smiles": "CC(c1ccc(OC(F)(F)F)cc1)c1nc2cc(C(=O)O)ccc2n1[C@H]1C[C@@H](C)CC(C)(C)C1", "note": "(single isomer, unassigned) [Example 2-30-4, 2-{1-[4-(trifluoromethoxy)phenyl]ethyl}-1-[(cis)-3,3,5-trimethylcyclohexyl]-1H-benzimidazole-5-carboxylic acid]", "values": [{"measurement": "IC50", "setting": "IDH1 R132H enzyme", "result": "> 10000", "unit": "nM"}]}
{"smiles": "CC(c1ccc(OC(F)(F)F)cc1)c1nc2cc(C(=O)O)ccc2n1[C@@H]1C[C@H](C)CC(C)(C)C1", "note": "(stereo in doubt) [Example 2-30]", "values": [{"measurement": "IC50", "setting": "IDH1 R132H enzyme", "result": 2700, "unit": "nM"}]}
